# Measured affinities in a library of Ab-14 heavy chain variants

Values reported by Engelhart et al. 2022, doi:10.1038/s41597-022-01779-4 (FLAb copy).

Target peptide (SARS-CoV-2 spike, HR2 region): PDVDLGDISGINAS

Ab-14 is the parent antibody, in scFv form: VH, then three GGGGS repeats, then VL. The light chain is unchanged in all variants.
VH: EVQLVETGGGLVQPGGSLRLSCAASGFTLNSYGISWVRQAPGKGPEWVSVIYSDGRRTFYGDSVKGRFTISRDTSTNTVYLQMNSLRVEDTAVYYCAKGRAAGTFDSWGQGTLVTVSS
VL: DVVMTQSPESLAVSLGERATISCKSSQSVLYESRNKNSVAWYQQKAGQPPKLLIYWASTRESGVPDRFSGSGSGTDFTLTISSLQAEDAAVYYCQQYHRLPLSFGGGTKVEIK

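The parent was found by panning a naive human phage display library on the peptide. The library (AAYL49) carries one to three amino acid substitutions per variant, with no insertions or deletions. Affinity was read by AlphaSeq, a pooled yeast mating assay with surface-displayed partners. Mating (16 h, 30 °C) was followed by selection of diploids and sequencing of their barcodes. A regression on co-assayed BCL2-family reference pairs converts the normalised counts of each replicate to an apparent Kd. Each pool was mated in three replicate cultures.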

Substitutions are numbered in sequence along the VH above, starting at 1 (not Kabat). This list gathers variants with a substitution at T28 (VH, numbered from residue 1). Values are log10 of the apparent Kd in nM; lower means stronger binding. Where no diploid with the target was found in that replicate, the entry reads "nd": below detection, most likely a poor binder, though not proof of it. In this assay the parent's reference entry averaged 0.65; its copy inside this library read 4.11 (one replicate of three). Background: pairings of library AAYL49 with three empty control strains gave a value in 15% of cases (median 4.06, 5th percentile 2.83). Values in that range, when seen in few replicates, are hard to tell from nonspecific mating.

Variant T28S+R57H+F105G showed nd, nd, nd. Variant T28N+S31K+T58C showed 1.21, 1.25, 1.26. Variant T28R+A102V+F105G gave nd, 3.13, nd. For T28Y, the assay gave 1.55, 1.59, 1.59. With T28W+S53C+R56E the result was nd, nd, 4.27. Variant T28F+S35L+A102I showed nd, 5.82, nd. With G26E+T28P+G103T the result was 5.25, nd, nd. With T28E+I51F+R100G the result was 3.59, 2.70, 3.20. For T28Y+D62Q+T104Q, the assay gave 3.21, 2.87, 3.30.

For T28S+S53I+A101N, the assay gave nd, 2.35, 3.13. Variant T28I+S35Y+G61E showed 3.76, nd, nd. Variant T28A+L29T+Y32C gave 1.17, 1.43, 1.54. Variant T28C+I51Y+D62Y showed nd, 4.50, nd. Variant T28C+V64W+G103E showed nd, nd, nd. With T28Q+V64N+G99A the result was nd, nd, nd. Variant T28A+G61Q+R100K showed 0.24, 0.72, 0.26. Variant T28D+Y60M+A102Y showed 0.78, 0.83, 0.73. For T28P+S31E+A102I, the assay gave nd, nd, 3.83.

Variant T28P+R56T+S63E showed nd, nd, nd. Variant T28P+L29M+N30M gave 2.91, 2.61, nd. For T28C+R100M+F105I, the assay gave 1.50, 1.59, 1.71. With T28F+Y52F+K65V the result was nd, nd, nd. With T28M+G33I+S107M the result was 3.84, nd, nd. For T28Q+S31P+Y32G, the assay gave 4.87, 3.34, nd. Variant T28F+K65H+A102W showed nd, nd, nd. Variant T28E+G55K+F105I showed nd, nd, nd. For T28A+A101M+T104H, the assay gave nd, nd, nd.

With T28L+K65Y+F105M the result was 4.83, 3.63, 4.18. For T28N+G55S+S63A, the assay gave 3.72, nd, 4.10. Variant T28V+S31F+G103C showed 2.80, 2.67, 2.46. Variant T28L+S31E+Y32W showed 1.24, 1.35, 1.27. For T28N+S31E+D62G, the assay gave 0.49, 0.47, 0.44. Variant T28E+L29H+F59H gave nd, 3.62, 4.39. Variant T28S+R56M+G103L gave nd, nd, nd. For T28R+T58N+A102E, the assay gave nd, nd, nd. For T28W+I34S+V50L, the assay gave nd, nd, nd.

Variant T28F+K65C showed 3.78, 3.77, 4.12. Variant T28C+T104K gave 4.73, nd, nd. For T28G+Y52I+D54M, the assay gave nd, nd, nd. Variant T28D+F59K+T104L showed nd, nd, nd. For T28R+R57S+A101K, the assay gave nd, 3.42, nd. For T28E+I34P+T104S, the assay gave nd, nd, nd. With T28L+I34D+G61K the result was nd, nd, 4.34. Variant T28S+D62T+S63A showed nd, nd, nd. For T28F+G61L, the assay gave 2.11, 2.06, 1.99.

With T28K+T58Q+F105V the result was nd, 4.23, nd. Variant T28H+Y32T gave nd, nd, nd. For T28W, the assay gave 1.61, 1.68, 1.70. With T28H+G55Y+R100Y the result was nd, nd, nd.

The closing 6 entries, repeated:

changes,log10 Kd (nM) by replicate
T28S+D62T+S63A,"nd, nd, nd"
T28F+G61L,"2.11, 2.06, 1.99"
T28K+T58Q+F105V,"nd, 4.23, nd"
T28H+Y32T,"nd, nd, nd"
T28W,"1.61, 1.68, 1.70"
T28H+G55Y+R100Y,"nd, nd, nd"